# In patent US8859617B2, “Use of furan alkyl for preparing an antidiabetic drug” (Laboratoires Expanscience, priority 2004, dated 2014):
# What was measured:
# mice on HF/HS diet = assay: Intraperitoneal Glucose Tolerance Test (IPGTT); type: in vivo; details: preventive; TZD
# [1] = test system: GSH-S-transferase (target PXR); assay: mRNA analysis in the liver (Q-RT-PCR): GSH-S-transferase; type: in vivo, mice; details: TZD
# Protocol: the liver, the mRNA expressions of 8 genes were determined in 5 mice of each group using real-time Q-RT-PCR analysis.
smiles,measurement,setting,value
"CN(CCOc1ccc(CC2SC(=O)NC2=O)cc1)c1ccccn1 (centres unmarked) [TZD, Rosiglitazone]",IPGTT Area Under Curve value (AUC),mice on HF/HS diet,no significant AUC reduction
same,GSH-S-transferase (target PXR) mRNA,[1],↑
